Like-named read-outs stand apart in the source and are kept apart here.
Columns and labels:
cat-CHD1L ATPase = cat-CHD1L ATPase (Homo sapiens, UniProt Q86WJ1); test: CHD1L ATPase assay with recombinant catalytic domain (cat-CHD1L); conditions: for IC50: read-out: cat-CHD1L inhibition IC50, Table 6; for CHD1L enzyme inhibition, in words: recombinant cat-CHD1L
[1] = Human microsomal stability; assay type: in vitro ADME; conditions: Table 6
HCT116 tumor organoids = test: Tumor organoid cytotoxicity (CellTiter-Glo 3D); conditions: read-out: 3 D Cytotoxicity 72 hr IC50 (μM) HCT116; Table 6
[2] = Mouse liver microsome stability; conditions: Table 6
SW620 tumor organoids = test: Tumor organoid cytotoxicity (CellTiter-Glo 3D); assay type: cell-based, human
HCT116 M-Phenotype cells = test: Clonogenic assay, continuous treatment; conditions: read-out: colony formation IC50
SW620 M-Phenotype cells = test: Clonogenic assay, continuous treatment; conditions: read-out: colony formation IC50
[3] = read-out: 3 D Cytotoxicity 72 hr IC50 (μM) SW620, Table 6

Protein sequences, listed by entry. Tags and fused reporters are not part of them. Residues count along the entry.
UniProt Q86WJ1, 16-611 limits assumed: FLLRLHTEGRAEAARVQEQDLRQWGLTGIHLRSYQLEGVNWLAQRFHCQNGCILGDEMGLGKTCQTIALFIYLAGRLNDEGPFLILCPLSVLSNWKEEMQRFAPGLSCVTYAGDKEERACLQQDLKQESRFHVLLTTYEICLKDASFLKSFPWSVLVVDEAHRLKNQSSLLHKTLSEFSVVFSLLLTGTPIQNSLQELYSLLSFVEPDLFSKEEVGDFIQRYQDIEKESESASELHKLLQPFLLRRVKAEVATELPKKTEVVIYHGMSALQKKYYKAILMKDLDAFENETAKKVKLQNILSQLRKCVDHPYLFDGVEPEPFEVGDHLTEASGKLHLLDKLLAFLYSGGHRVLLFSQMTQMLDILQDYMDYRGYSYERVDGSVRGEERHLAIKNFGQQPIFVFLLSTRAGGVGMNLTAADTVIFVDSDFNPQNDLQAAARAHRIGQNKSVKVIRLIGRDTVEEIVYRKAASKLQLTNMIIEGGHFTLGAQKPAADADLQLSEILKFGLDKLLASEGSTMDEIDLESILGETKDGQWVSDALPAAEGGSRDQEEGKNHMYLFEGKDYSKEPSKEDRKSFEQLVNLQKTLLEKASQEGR

Row | IC50 (cat-CHD1L ATPase) [nM] | CHD1L enzyme inhibition, in words (cat-CHD1L ATPase) | Microsomal stability Human t1/2 [1] [h] | Microsomal stability Mouse t1/2 [2] [h] | CHD1L enzyme inhibition, in words (cat-CHD1L ATPase; listed as 75) | IC50 (HCT116 M-Phenotype cells) [nM] | IC50 (SW620 M-Phenotype cells) [nM] | SMILES | IC50 (HCT116 tumor organoids) [µM] | IC50 (SW620 tumor organoids; [3]) [µM] | IC50 (SW620 tumor organoids; read-out: Tumor Organoid Cytotoxicity IC50 (μM) SW620, single agent, Table 4A, updated experimental, rounded to one decimal) [µM]
1 | 2100 | good enzyme inhibition | 3.3168 | 1.61 |  |  |  | Cc1cc(Nc2ccc(NC(=O)Cc3ccc[nH]3)cc2)nc(N2CCCC2)n1 | 7.6 | 6.1 | 
2 | 1000 | more potent CHD1L inhibitors |  |  | good enzyme inhibition | 200 | 300 | Cc1cc(Nc2ccc(NC(=O)Cc3cc(Cl)nc4ccccc34)cc2)nc(N2CCCC2)n1 |  | 2.4 | 2.4

— US20230103444A1 (The Regents of the University of Colorado, a Body Corporate, priority 2020, published 2023)
